Target: hOX1R (orexin-1 receptor) (Rattus norvegicus, UniProt P56718)
Experiment: FLIPR Ca2+ Flux Assay, hOX1R FLIPR
Type: cell-based
Conditions: CHO cells, 70 pM Ala-6,12 human orexin-A agonist
Protocol: In a typical experiment the OX1 and OX2 receptor antagonistic activity of the compounds of the present invention was determined in accordance with the following experimental method. For intracellular calcium measurements, Chinese hamster ovary (CHO) cells expressing the rat orexin-1 receptor or the human orexin-2 receptor, are grown in Iscove's modified DMEM containing 2 mM L-glutamine, […], 1% hypoxanthine-thymidine supplement, 100 U/ml penicillin, 100 μg/ml streptomycin and 10% heat-inactivated fetal calf serum (FCS). The cells are seeded at 20,000 cells/well into Becton-Dickinson black 384-well clear bottom sterile plates coated with poly-D-lysine. All reagents were from GIBCO-Invitrogen Corp. The seeded plates are incubated overnight at 37° C. and 5% CO2. Ala-6,12 human orexin-A as the agonist is prepared as a 1 mM stock solution in 1% bovine serum albumin (BSA) and diluted in assay buffer (HBSS containing 20 mM HEPES, 0.1% BSA and 2.5 mM probenecid, pH7.4) for use in the assay at a final concentration of 70 pM. Test compounds are prepared as 10 mM stock solution in DMSO, then diluted in 384-well plates, first in DMSO, then assay buffer. On the day of the assay, cells are washed 3 times with 100 μl assay buffer and then incubated for 60 min (37° C., 5% CO2) in 60 μl assay buffer containing 1 μM Fluo-4AM ester, 0.02% pluronic acid, and 1% BSA. The dye loading solution is then aspirated and cells are washed 3 times with 100 μl assay buffer. 30 μl of that same buffer is left in each well. Within the Fluorescent Imaging Plate Reader (FLIPR, Molecular Devices), test compounds are added to the plate in a volume of 25 μl, incubated for 5 min and finally 25 μl of agonist is added. Fluorescence is measured for each well at 1 second intervals for 5 minutes and the height of each fluorescence peak is compared to the height of the fluorescence peak induced by 70 pM Ala-6,12 orexin-A with buffer in place of antagonist. […] Alternatively, compound potency can be assessed by a radioligand binding assay (described in Bergman et. al. Bioorg. Med. Chem. Lett. 2008, 18, 1425-1430) in which the inhibition constant (Ki) is determined in membranes prepared from CHO cells expressing either the OX1 or OX2 receptor. The intrinsic orexin receptor antagonist activity of a compound which may be used in the present invention may be determined by these assays.

SMILES	IC50
COC(=O)c1c(C#N)ccnc1O[C@@H]1CC[C@@H](C)N(C(=O)c2ccc(OC)nc2-n2nccn2)C1 [Example 3, methyl 4-cyano-2-{[(3R,6R)-1-{[6-methoxy-2-(2H-1,2,3-triazol-2-yl)pyridin-3-yl]carbonyl}-6-methylpiperidin-3-yl]oxy}pyridine-3-carboxylate]	10 µM
COC(=O)c1c(C#N)ccnc1O[C@@H]1CC[C@@H](C)N(C(=O)c2c(F)cccc2-c2nc(C)no2)C1 [Example 9, methyl 4-cyano-2-{[(3R,6R)-1-{[2-fluoro-6-(3-methyl-1,2,4-oxadiazol-5-yl)phenyl]carbonyl}-6-methylpiperidin-3-yl]oxy}pyridine-3-carboxylate]	1.89 µM
COC(=O)c1c(C#N)ccnc1O[C@@H]1CC[C@@H](C)N(C(=O)c2ccc(F)cc2-c2noc(C)n2)C1 [Example 12, methyl 4-cyano-2-{[(3R,6R)-1-{[4-fluoro-2-(5-methyl-1,2,4-oxadiazol-3-yl)phenyl]carbonyl}-6-methylpiperidin-3-yl]oxy}pyridine-3-carboxylate]	2.53 µM
COC(=O)c1c(C#N)ccnc1O[C@@H]1CC[C@@H](C)N(C(=O)c2c(F)cccc2-c2noc(C)n2)C1 [Example 14, methyl 4-cyano-2-{[(3R,6R)-1-{[2-fluoro-6-(5-methyl-1,2,4-oxadiazol-3-yl)phenyl]carbonyl}-6-methylpiperidin-3-yl]oxy}pyridine-3-carboxylate]	1.68 µM
COC(=O)c1c(C#N)ccnc1O[C@@H]1CC[C@@H](C)N(C(=O)c2cccc(C)c2-n2nccn2)C1 [Example 16, methyl 4-cyano-2-{[(3R,6R)-6-methyl-1-{[3-methyl-2-(2H-1,2,3-triazol-2-yl)phenyl]carbonyl}piperidin-3-yl]oxy}pyridine-3-carboxylate]	0.368 µM
COC(=O)c1c(C#N)ccnc1O[C@@H]1CC[C@@H](C)N(C(=O)c2ccc(C)cc2-n2nccn2)C1 [Example 17, methyl 4-cyano-2-{[(3R,6R)-6-methyl-1-{[4-methyl-2-(2H-1,2,3-triazol-2-yl)phenyl]carbonyl}piperidin-3-yl]oxy}pyridine-3-carboxylate]	1.44 µM
COC(=O)c1c(C#N)ccnc1O[C@@H]1CC[C@@H](C)N(C(=O)c2cccc(F)c2-c2ncccn2)C1 [Example 21, methyl 4-cyano-2-({(3R,6R)-1-[(3-fluoro-2-pyrimidin-2-ylphenyl)carbonyl]-6-methylpiperidin-3-yl}oxy)pyridine-3-carboxylate]	0.855 µM
COC(=O)c1c(C#N)ccnc1O[C@@H]1CC[C@@H](C)N(C(=O)c2c(F)cccc2-c2ncccn2)C1 [Example 24, methyl 4-cyano-2-({(3R,6R)-1-[(2-fluoro-6-pyrimidin-2-ylphenyl)carbonyl]-6-methylpiperidin-3-yl}oxy)pyridine-3-carboxylate]	0.38 µM
COC(=O)c1c(C#N)ccnc1O[C@@H]1CC[C@@H](C)N(C(=O)c2ccccc2C2CCC2)C1 [Example 26, Methyl 4-cyano-2-(((3R,6R)-1-(2-cyclobutylbenzoyl)-6-methylpiperidin-3-yl)oxy)nicotinate]	1.1 µM

Source: patent publication US9586950B2 (MERCK SHARP & DOHME CORP., priority 2012, dated 2017)
